# Test results reported in ChEMBL document CHEMBL1126513, “Quinuclidine-based NK-1 antagonists I: 3-benzyloxy-1-azabicyclo[2.2.2]octanes” (Bioorg Med Chem Lett, 1993).
# The chains behind the UniProt entries cited, without tags or fusion partners.
# UniProt P25103, whole entry, looked up: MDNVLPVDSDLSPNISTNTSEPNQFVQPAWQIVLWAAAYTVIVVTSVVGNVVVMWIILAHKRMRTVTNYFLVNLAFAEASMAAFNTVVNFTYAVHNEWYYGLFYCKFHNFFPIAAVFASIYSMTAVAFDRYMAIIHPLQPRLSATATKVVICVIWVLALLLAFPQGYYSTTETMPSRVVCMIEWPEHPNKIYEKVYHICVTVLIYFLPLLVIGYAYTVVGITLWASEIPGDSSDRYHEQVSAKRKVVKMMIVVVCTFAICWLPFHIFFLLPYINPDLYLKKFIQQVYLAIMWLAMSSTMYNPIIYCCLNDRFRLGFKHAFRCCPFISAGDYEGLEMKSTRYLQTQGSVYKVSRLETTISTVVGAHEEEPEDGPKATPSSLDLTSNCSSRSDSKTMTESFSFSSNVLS
# Molecular target: Substance-P receptor (Homo sapiens, UniProt P25103)
# Experiment: Displacement of [125]Substance P Binding from human Neurokinin NK1 receptor in CHO Cells
structure (smiles),measurement,value
O=C(O[C@H]1C2CCN(CC2)[C@H]1C(c1ccccc1)c1ccccc1)c1ccccc1,IC50,> 1000 nM
